One compound from ChEMBL document CHEMBL4765388, “Fluoropyrimidin-2,4-dihydroxy-5-isopropylbenzamides as antitumor agents against CRC and NSCLC cancer cells” (Eur J Med Chem, 2020) can be followed below.

For assay [1], the target named is T1, Heat shock protein HSP 90-alpha (Homo sapiens, UniProt P07900). In words: Potency index, ratio of AUY-922 IC50 to test compound IC50 for inhibition of recombinant human full-length C-terminal Hsi-tagged HSP90alpha (1 to 732 residues) expressed in Escherichia coli.
For assay [2], the target named is T1, Heat shock protein HSP 90-alpha. In words: Potency index, ratio of BIIB021 IC50 to test compound IC50 for inhibition of recombinant human full-length C-terminal Hsi-tagged HSP90alpha (1 to 732 residues) expressed in Escherichia coli.

In the case of `CCN(C(=O)c1cc(C(C)C)c(O)cc1O)c1ccc(Cn2c(=O)c(F)cn(C3CCCO3)c2=O)cc1` (configuration not stated), the Ratio IC50 in assay [1] and in assay [2] was 2 in each case.
